Permeability data for macrocyclic peptides

PAMPA measures passive passage through an artificial lipid membrane.
Permeability is given as log10 of P in cm/s; higher (less negative) is more permeable.

PAMPA (log10 cm/s),structure (SMILES)
-6.43,CC(C)C[C@H]1NC(=O)[C@H]2CCCN2C(=O)[C@@H](CC(C)C)NC(=O)[C@@H](CC(C)C)NC(=O)[C@@H](C)NC(=O)[C@H](Cc2ccccc2)NC1=O
-6.20,CC(C)C[C@@H]1C(=O)N[C@@H](Cc2ccccc2)C(=O)N2CCC[C@H]2C(=O)N[C@@H](C)C(=O)N(C)[C@@H](CC(C)C)C(=O)N[C@@H](Cc2ccccc2)CC(=O)N2CCC[C@H]2C(=O)N1C
-6.08,CC(C)C[C@@H]1NC(=O)[C@H](C)NC(=O)[C@@H]2CCCN2C(=O)[C@H](Cc2ccccc2)NC(=O)[C@H](CC(C)C)NC(=O)[C@@H]2CCCN2C(=O)[C@@H](CC(C)C)NC1=O
-4.94,CCCN1CC(=O)N(C)[C@H](CC(C)C)C(=O)N(C)[C@@H](CC(C)C)C(=O)N2CCC[C@H]2C(=O)N(C)[C@H](CC(C)C)C(=O)N[C@@H](Cc2ccccc2)C(=O)N2CCC[C@@H]2C1=O
-6.78,CC(C)C[C@@H]1NC(=O)[C@@H](C)N(C)C(=O)[C@@H]2CCCN2C(=O)[C@H](Cc2ccccc2)NC(=O)[C@@H](CC(C)C)NC(=O)[C@@H]2CCCN2C(=O)[C@H](CC(C)C)N(C)C1=O
-5.81,CC(C)C[C@@H]1C(=O)N2CCC[C@H]2C(=O)N[C@H](CC(C)C)C(=O)N[C@@H](Cc2ccccc2)C(=O)N2CCC[C@@H]2C(=O)N(C)[C@@H](C)C(=O)N(C)[C@H](CC(C)C)C(=O)N1C
-5.76,CC(C)C[C@H]1NC(=O)[C@@H](C)N(C)C(=O)[C@H](Cc2ccccc2)NC(=O)[C@H](CC(C)C)N(C)C(=O)[C@H]2CCCN2C(=O)[C@@H](CC(C)C)NC1=O
-5.20,CC(C)C[C@@H]1C(=O)N[C@H](CC(C)C)C(=O)N2CCC[C@@H]2C(=O)N(C)[C@H](CC(C)C)C(=O)N[C@@H](Cc2ccccc2)C(=O)N[C@@H](C)C(=O)N1C
-5.72,CCCN1CC(=O)N(C)[C@@H](CC(C)C)C(=O)N[C@@H](CC(C)C)C(=O)N2CCC[C@H]2C(=O)N[C@@H](CC(C)C)C(=O)N[C@@H](Cc2ccccc2)C(=O)N2CCC[C@H]2C1=O
-5.43,CC(C)C[C@H]1NC(=O)[C@@H](C)N(C)C(=O)[C@H](Cc2ccccc2)NC(=O)CN(Cc2ccccc2)C(=O)[C@@H]2CCCN2C(=O)CN(Cc2ccccc2)C1=O
-4.74,CCCN1CC(=O)N(C)[C@H](CC(C)C)C(=O)N[C@@H](CC(C)C)C(=O)N2CCC[C@H]2C(=O)N(C)[C@@H](CC(C)C)C(=O)N[C@@H](Cc2ccccc2)C1=O
-5.42,CC(C)C[C@@H]1C(=O)N[C@@H](Cc2ccccc2)C(=O)N2CCC[C@H]2C(=O)N(C)[C@H](C)C(=O)N[C@H](CC(C)C)C(=O)N[C@H](CC(C)C)C(=O)N2CCC[C@@H]2C(=O)N1C
-5.13,CC(C)C[C@@H]1C(=O)N[C@H](CC(C)C)C(=O)N2CCC[C@H]2C(=O)N(C)[C@H](CC(C)C)C(=O)N[C@@H](Cc2ccccc2)C(=O)N2CCC[C@H]2C(=O)N(C)[C@H](C)C(=O)N1C
-5.48,CC(C)C[C@@H]1C(=O)N(Cc2ccccc2)CC(=O)N2CCC[C@H]2C(=O)N(C)[C@H](CC(C)C)C(=O)N[C@@H](Cc2ccccc2)C(=O)N2CCC[C@@H]2C(=O)N[C@@H](Cc2ccccc2)CC(=O)N1C
-5.66,CC(C)C[C@@H]1C(=O)N(Cc2ccccc2)CC(=O)N2CCC[C@H]2C(=O)N(C)[C@H](CC(C)C)C(=O)N[C@@H](Cc2ccccc2)C(=O)N2CCC[C@@H]2C(=O)N(C)[C@H](C)C(=O)N1C
-6.61,CC(C)C[C@H]1NC(=O)[C@H](C)N(C)C(=O)[C@H]2CCCN2C(=O)[C@H](Cc2ccccc2)NC(=O)[C@@H](CC(C)C)NC(=O)[C@@H]2CCCN2C(=O)C[C@H](Cc2ccccc2)NC1=O
-4.85,CCCN1CC(=O)N(C)[C@H](CC(C)C)C(=O)N(C)[C@@H](CC(C)C)C(=O)N2CCC[C@@H]2C(=O)N(C)[C@@H](CC(C)C)C(=O)N[C@@H](Cc2ccccc2)C(=O)N2CCC[C@@H]2C1=O
-6.77,CCCN1CC(=O)N[C@H](CC(C)C)C(=O)N[C@H](CC(C)C)C(=O)N2CCC[C@@H]2C(=O)N[C@H](CC(C)C)C(=O)N[C@@H](Cc2ccccc2)C(=O)N2CCC[C@H]2C1=O
-5.11,CC(C)C[C@@H]1NC(=O)[C@H](C)N(C)C(=O)[C@H](Cc2ccccc2)NC(=O)[C@@H](CC(C)C)N(C)C(=O)[C@@H]2CCCN2C(=O)[C@H](CC(C)C)NC1=O
-5.92,CC(C)C[C@H]1NC(=O)[C@@H](C)N(C)C(=O)[C@H]2CCCN2C(=O)[C@H](Cc2ccccc2)NC(=O)CN(Cc2ccccc2)C(=O)[C@H]2CCCN2C(=O)[C@@H](CC(C)C)NC1=O
-6.36,CC(C)C[C@@H]1C(=O)N(Cc2ccccc2)CC(=O)N2CCC[C@H]2C(=O)N[C@H](CC(C)C)C(=O)N[C@@H](Cc2ccccc2)C(=O)N2CCC[C@H]2C(=O)N(C)[C@@H](C)C(=O)N1C
-5.47,CCCN1CC(=O)N[C@H](CC(C)C)C(=O)N[C@H](CC(C)C)C(=O)N2CCC[C@@H]2C(=O)N(C)[C@@H](CC(C)C)C(=O)N[C@@H](Cc2ccccc2)C1=O

Repeated from above, the 2 entries with the highest PAMPA:

structure (SMILES)	PAMPA (log10 cm/s)
CCCN1CC(=O)N(C)[C@H](CC(C)C)C(=O)N[C@@H](CC(C)C)C(=O)N2CCC[C@H]2C(=O)N(C)[C@@H](CC(C)C)C(=O)N[C@@H](Cc2ccccc2)C1=O	-4.74
CCCN1CC(=O)N(C)[C@H](CC(C)C)C(=O)N(C)[C@@H](CC(C)C)C(=O)N2CCC[C@@H]2C(=O)N(C)[C@@H](CC(C)C)C(=O)N[C@@H](Cc2ccccc2)C(=O)N2CCC[C@@H]2C1=O	-4.85

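Conditions beyond the assay type are not listed; see the original paper. The list need not hold all peptides of the study. Peptides that the database sets to -10, its floor, are left out.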

Collected by the curators of CycPeptMPDB (Li et al. 2023) from Townsend et al. 2020, doi:10.26434/chemrxiv.13335941.v1.